Assay results published in article PMC7252514 (Science (New York, N.Y.), 2019).

The chains behind the UniProt entries cited, without tags or fusion partners. Residues count along the entry.
UniProt P36544, 23-229 L131G/Q139L/Y217F: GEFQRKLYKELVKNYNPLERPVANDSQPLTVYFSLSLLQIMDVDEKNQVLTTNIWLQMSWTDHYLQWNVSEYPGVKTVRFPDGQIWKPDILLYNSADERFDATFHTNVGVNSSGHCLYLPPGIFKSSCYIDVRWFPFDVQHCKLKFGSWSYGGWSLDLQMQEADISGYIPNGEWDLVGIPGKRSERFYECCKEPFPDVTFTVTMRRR

Molecular target: α7^L131G,Q139L,Y217F-GlyR (PSAM^4-GlyR) (Homo sapiens, UniProt P36544, L131G/Q139L/Y217F)
Assay: Competition binding by displacement of [3H]-ASEM at PSAM4-GlyR

c1cnc2cc3c(cc2n1)[C@@H]1CNC[C@H]3C1 [varenicline]
Ki: 1.3 ± 0.4 nM
